Source: BindingDB's records for doi:10.1016/j.ejmech.2008.09.027 (Chulalongkorn University, 2009)

Amino acid sequences for entries named in this document (tags omitted). A change or cut given only in a name is not applied to a line headed by its entry.
UniProt P30291: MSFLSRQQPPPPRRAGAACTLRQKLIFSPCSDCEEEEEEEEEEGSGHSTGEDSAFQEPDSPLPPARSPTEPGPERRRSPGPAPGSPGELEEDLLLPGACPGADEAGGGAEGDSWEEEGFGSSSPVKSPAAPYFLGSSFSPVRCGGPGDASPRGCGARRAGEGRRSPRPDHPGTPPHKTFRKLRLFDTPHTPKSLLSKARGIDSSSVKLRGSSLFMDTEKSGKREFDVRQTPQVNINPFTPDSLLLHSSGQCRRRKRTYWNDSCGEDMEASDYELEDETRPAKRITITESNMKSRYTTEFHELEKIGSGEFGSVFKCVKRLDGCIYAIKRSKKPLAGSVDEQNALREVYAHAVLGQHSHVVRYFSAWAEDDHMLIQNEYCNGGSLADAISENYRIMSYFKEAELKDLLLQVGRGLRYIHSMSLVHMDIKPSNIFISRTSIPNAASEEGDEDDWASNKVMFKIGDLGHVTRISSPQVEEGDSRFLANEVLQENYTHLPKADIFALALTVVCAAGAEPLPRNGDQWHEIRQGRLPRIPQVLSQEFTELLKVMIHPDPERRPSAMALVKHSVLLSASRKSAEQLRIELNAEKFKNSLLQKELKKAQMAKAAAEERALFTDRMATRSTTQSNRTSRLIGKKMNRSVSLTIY

Target: Wee1-like protein kinase (Homo sapiens, UniProt P30291)

Q: With `O=C(O)CCn1c2ccc(O)cc2c2c3c(c(-c4ccccc4Cl)cc21)C(=O)NC3=O` [3-(4-(2-chlorophenyl)-9-hydroxy-1,3-dioxo-2,3-dihydropyrrolo[3,4-c]carbazol-6(1H)-yl)propanoic acid] as the compound, how does the IC50 read?
A: 12.9 nM
